# From patent US4018930A, “Substituted indolobenzazepines” (Endo Laboratories, Inc., priority 1975, dated 1977)
# Where a name gives a salt, the structure may show the parent alone.
# Key:
# [1] = in vivo
# [2] = test system: mice; assay: Decreased Locomotor Activity (L.M.A.), primary rodent screen; format: in vivo, mouse; conditions: po, read-out: L.M.A. ED50 (decreased locomotor activity)
# [3] = test system: mice; assay: Phenylquinone Writhing (P.Q.W.) test, analgesic activity; format: in vivo, mouse; conditions: 0.5 h, po, read-out: P.Q.W. ED50 (analgesic ED50)
# Experimental: The analgesic activity of the compounds of the present invention is conveniently determined in a phenylquinone writhing test, as described below:
# Phenylquinone Writhing (P.Q.W.):
# results given in: mg/kg po/mouse
# Groups of at least 10 mice are given phenyl-p-benzoquinone 2.5 mg/kg intraperitoneally 30 minutes after oral administration of graded doses of the test substance. Two or more dose levels are used for each compound. For scoring purposes, a "writhe" is defined as stretching, twisting of a hindleg inward, or contraction of the abdomen. The total number of writhes for each animal, treated and control animals side-by-side, are counted over a 30-minute time interval. […] The P.Q.W. test is widely used as an indicator of potential analgesic activity in man, especially for non-narcotic substances.
# [4] = test system: mice; assay: Ptosis (Pto.), primary rodent screen; format: in vivo, mouse; conditions: po, read-out: Pto. ED50 (ptosis)
# [5] = Solubility in water; format: physicochemical
# [6] = mouse, oral dose producing score of at least -1
# [7] = mouse, phenyl-p-benzoquinone 2.5 mg/kg ip 30 min after dose, 30-minute count
SMILES,LD50 [1],"ED50 [2, 6]","ED50 [3, 7]","ED50 ([4]; mouse, passive ptosis)",solubility in water [5],ED50 ([2]; Mus musculus),ED50 ([4]; Mus musculus),ED50 ([3]; Mus musculus)
"CC(Cl)=CCN1CC[C@@H]2[C@@H](C1)c1cccc3c1N2c1ccccc1CC3 (racemic) [Example 1, (±)-trans-3-(3-chloro-2-butenyl)-1,2,3,4,4a,8,9,14a-octahydropyrido[4',3':2,3]indolo[1,7-ab][1]benzazepine]",> 300 mg/kg,> 300 mg/kg,86 mg/kg,> 300 mg/kg,–,–,–,–
"CC(=O)CCN1CC[C@@H]2[C@@H](C1)c1cccc3c1N2c1ccccc1CC3 (racemic) [Example 6, (±)-4-(trans-1,2,3,4,4a,8,9,14a-octahydropyrido[4',3':2,3]indolo[1,7-ab][1]benzazepin-3-yl)-2-butanone]",> 324 mg/kg,8 mg/kg,1.25 mg/kg,7.1 mg/kg,–,–,–,–
"CC(=O)CCCN1CC[C@@H]2[C@@H](C1)c1cccc3c1N2c1ccccc1CC3 (racemic) [Example 7, (±)-5-(trans-1,2,3,4,4a,8,9,14a-octahydropyrido[4',3':2,3]indolo[1,7-ab][1]benzazepin-3-yl)-2-pentanone]",> 324 mg/kg,2.6 mg/kg,1.4 mg/kg,1.3 mg/kg,–,–,–,–
"O=C(CCN1CC[C@@H]2[C@@H](C1)c1cccc3c1N2c1ccccc1CC3)c1ccccc1 (racemic) [Example 8, (±)-3-(trans-1,2,3,4,4a,8,9,14a-octahydropyrido[4',3':2,3]indolo[1,7-ab][1]benzazepin-3-yl)propiophenone]",> 324 mg/kg,200 mg/kg,26 mg/kg,20 mg/kg,–,–,–,–
"CC(=O)CN1CC[C@@H]2[C@@H](C1)c1cccc3c1N2c1ccccc1CC3 (relative stereo) [Example 3, (±)-trans-3-acetonyl-1,2,3,4,4a,8,9,14a-octahydropyrido[4',3':2,3]indolo[1,7-ab][1]benzazepipine]",> 300 mg/kg,2 mg/kg,2 mg/kg,4 mg/kg,–,–,–,–
"c1ccc2c(c1)CCc1cccc3c4c(n-2c13)CCNC4 [1,2,3,8,9-hexahydropyrido[4',3':2,3]=indolo[1,7ab][1]benzazepine hydrochloride]",–,–,–,–,only very slightly soluble in water,–,–,–
"CN(C)CCCN1c2ccccc2Sc2ccc(Cl)cc21 [chlorpromazine (HCl), chlorpromazine, reference compound]",–,–,–,–,–,5 mg/kg,6 mg/kg,–
"COc1ccc2c3c1O[C@H]1[C@@H](O)C=C[C@H]4[C@@H](C2)N(C)CC[C@@]341 [codeine phosphate, reference compound]",–,–,–,–,–,–,–,19 mg/kg
